Test results published in patent US9045498B2, “Hexahydropyrano[3,4-d][1,3]thiazin-2-amine compounds” (Pfizer Inc., priority 2012, dated 2015).

By UniProt entry, the sequences of proteins in these tests, tags left out. Residues count along the entry.
UniProt Q9Y5Z0, 63-518: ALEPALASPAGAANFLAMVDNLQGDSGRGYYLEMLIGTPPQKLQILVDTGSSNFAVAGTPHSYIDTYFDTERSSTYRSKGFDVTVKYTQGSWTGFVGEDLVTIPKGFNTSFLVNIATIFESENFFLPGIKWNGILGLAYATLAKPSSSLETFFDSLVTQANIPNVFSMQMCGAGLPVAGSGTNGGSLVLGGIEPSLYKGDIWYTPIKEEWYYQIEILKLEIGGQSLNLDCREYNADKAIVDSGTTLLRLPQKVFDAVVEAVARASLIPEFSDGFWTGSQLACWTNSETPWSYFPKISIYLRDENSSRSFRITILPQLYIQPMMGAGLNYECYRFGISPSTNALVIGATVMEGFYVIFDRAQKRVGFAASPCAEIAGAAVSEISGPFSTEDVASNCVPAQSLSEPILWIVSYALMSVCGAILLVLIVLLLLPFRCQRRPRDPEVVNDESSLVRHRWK
UniProt P56817, 46-457: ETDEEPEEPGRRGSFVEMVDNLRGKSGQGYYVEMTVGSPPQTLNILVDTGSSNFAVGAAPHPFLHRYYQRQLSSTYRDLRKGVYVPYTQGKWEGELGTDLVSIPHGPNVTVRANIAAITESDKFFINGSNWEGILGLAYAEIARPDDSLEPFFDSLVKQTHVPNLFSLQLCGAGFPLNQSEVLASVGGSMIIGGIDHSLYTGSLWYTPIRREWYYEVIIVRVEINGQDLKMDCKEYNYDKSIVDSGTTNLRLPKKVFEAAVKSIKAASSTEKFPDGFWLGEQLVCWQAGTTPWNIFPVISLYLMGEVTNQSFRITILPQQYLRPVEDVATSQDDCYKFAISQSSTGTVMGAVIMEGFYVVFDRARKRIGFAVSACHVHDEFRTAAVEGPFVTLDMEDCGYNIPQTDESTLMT

Legend:
BACE2 enzyme = BACE2 enzyme (Homo sapiens (Human), UniProt Q9Y5Z0); assay: BACE2 Cell-free Assay (fluorescence polarization); assay type: biochemical; conditions: pH 4.5, 3 hours at 37° C.; number of determinations per footnote a, b, d
Procedure: This assay measures the inhibition of the BACE2 enzyme as it cleaves a non-native peptide. A synthetic substrate that can be cleaved by BACE2 having N-terminal biotin and made fluorescent by the covalent attachment of Oregon Green at the Cys residue is used to assay BACE2 activity in the presence or absence of the inhibitory compounds. The substrate is Biotin-[…]-C(Oregon green)-KK-OH. The BACE2 enzyme is available from Enzo Life Sciences (Cat # BML-SE550). Compounds are incubated in a ½ log dose response curve from a top concentration of 100 μM with BACE2 enzyme and the biotinylated fluorescent peptide in 384-well black plates (Thermo Scientific #4318). BACE2 is at a final concentration of 2.5 nM with a final concentration of peptide substrate of 150 nM in a reaction volume of 30 μL assay buffer (100 mM sodium acetate, pH 4.5 (brought to pH with acetic acid), and 0.001% Tween-20). Plates are covered and incubated for 3 hours at 37° C. The reaction is stopped with the addition of 30 μL of 1.5 μM Streptavidin (Pierce, #21125). After a 10 minute incubation at room temperature, plates are read on a Perkin Elmer EnVision for fluorescence polarization (Ex485 nm/Em530 nm). The activity of the beta-secretase enzyme is detected by changes in the fluorescence polarization that occur when the substrate is cleaved by the enzyme.

BACE1 enzyme = BACE1 enzyme (Homo sapiens (Human), UniProt P56817); assay: BACE1 Cell-Free Assay (fluorescence polarization); assay type: biochemical; conditions: geometric mean of 2-3 determinations; pH 4.5, 3 hours at 37° C.
Excerpt: This assay measures the inhibition of the beta-secretase enzyme as it cleaves a non-native peptide.
A synthetic APP substrate that can be cleaved by beta-secretase having N-terminal biotin and made fluorescent by the covalent attachment of Oregon Green at the Cys residue is used to assay beta-secretase activity in the presence or absence of the inhibitory compounds. […] The BACE1 enzyme is affinity purified material from conditioned media of CHO-K1 cells that have been transfected with a soluble BACE construct (BACE1deltaTM96His). Compounds are incubated in a ½ log dose response curve from a top concentration of 100 μM with BACE1 enzyme and the biotinylated fluorescent peptide in 384-well black plates (Thermo Scientific #4318). BACE1 is at a final concentration of 0.1 nM with a final concentration of peptide substrate of 150 nM in a reaction volume of 30 μL assay buffer (100 mM sodium acetate, pH 4.5 (brought to pH with acetic acid), and 0.001% Tween-20). Plates are covered and incubated for 3 hours at 37° C. […] After a 10 minute incubation at room temperature, plates are read on a PerkinElmer EnVision for fluorescence polarization (Ex485 nm/Em530 nm). The activity of the beta-secretase enzyme is detected by changes in the fluorescence polarization that occur when the substrate is cleaved by the enzyme.

Row | Compound | IC50 (BACE2 enzyme) | IC50 (BACE1 enzyme)
1 | N#Cc1cc([C@]23CO[C@@H](COCc4ccccc4)C[C@H]2CSC(N)=N3)c(F)cc1F [Example 2, 5-[(4aR,6R,8aS)-2-Amino-6-[(benzyloxy)methyl]-4,4a,5,6-tetrahydropyrano[3,4-d][1,3]thiazin-8a(8H)-yl]-2,4-difluorobenzonitrile] | 2.8 µM | –
2 | N#Cc1cc([C@]23CO[C@@H](CF)C[C@H]2CSC(N)=N3)c(F)cc1F [Example 4, 5-[(4aR,6R,8aS)-2-Amino-6-(fluoromethyl)-4,4a,5,6-tetrahydropyrano[3,4-d][1,3]thiazin-8a(8H)-yl]-2,4-difluorobenzonitrile] | – | 0.854 µM
3 | COC[C@H]1C[C@H]2CSC(N)=N[C@@]2(c2cc(C#N)c(F)cc2F)CO1 [Example 5, 5-[(4aR,6R,8aS)-2-Amino-6-(methoxymethyl)-4,4a,5,6-tetrahydropyrano[3,4-d][1,3]thiazin-8a(8H)-yl]-2,4-difluorobenzonitrile] | – | 0.32 µM
